Data as given in patent EP0369035A1, “AGENT FOR TREATING PANCREATITIS OR THE LIKE” (priority 1988, dated 1989).
Where two headings read alike, the source gives them in different places.

The chains behind the UniProt entries cited, without tags or fusion partners. Residues count along the entry.
UniProt P03952, 391-638 limits assumed: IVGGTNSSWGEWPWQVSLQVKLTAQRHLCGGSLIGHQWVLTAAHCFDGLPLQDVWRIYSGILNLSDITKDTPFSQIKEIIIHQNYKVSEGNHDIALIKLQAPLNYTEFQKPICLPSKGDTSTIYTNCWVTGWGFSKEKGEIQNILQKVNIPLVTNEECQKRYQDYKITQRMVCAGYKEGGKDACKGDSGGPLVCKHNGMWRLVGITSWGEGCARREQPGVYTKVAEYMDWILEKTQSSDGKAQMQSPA
UniProt P03952, 20-390 partner limits assumed: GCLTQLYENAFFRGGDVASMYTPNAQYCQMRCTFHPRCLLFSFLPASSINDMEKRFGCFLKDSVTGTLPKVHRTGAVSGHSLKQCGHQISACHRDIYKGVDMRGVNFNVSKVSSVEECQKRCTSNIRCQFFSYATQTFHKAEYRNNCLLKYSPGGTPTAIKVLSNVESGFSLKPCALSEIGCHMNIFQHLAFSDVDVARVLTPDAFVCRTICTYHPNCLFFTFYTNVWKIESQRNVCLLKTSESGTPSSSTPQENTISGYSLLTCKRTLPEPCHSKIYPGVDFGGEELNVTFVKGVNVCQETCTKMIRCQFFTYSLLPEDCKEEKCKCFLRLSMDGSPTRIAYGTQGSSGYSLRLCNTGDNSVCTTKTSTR
UniProt P00747, 581-810 limits assumed: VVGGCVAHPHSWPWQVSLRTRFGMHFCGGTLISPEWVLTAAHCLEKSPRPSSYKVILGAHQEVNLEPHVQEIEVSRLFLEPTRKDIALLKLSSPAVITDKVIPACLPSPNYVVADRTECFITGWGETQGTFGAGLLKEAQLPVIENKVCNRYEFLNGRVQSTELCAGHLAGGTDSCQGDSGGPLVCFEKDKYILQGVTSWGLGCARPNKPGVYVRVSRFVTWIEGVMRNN
UniProt P00747, 97-580 partner limits assumed: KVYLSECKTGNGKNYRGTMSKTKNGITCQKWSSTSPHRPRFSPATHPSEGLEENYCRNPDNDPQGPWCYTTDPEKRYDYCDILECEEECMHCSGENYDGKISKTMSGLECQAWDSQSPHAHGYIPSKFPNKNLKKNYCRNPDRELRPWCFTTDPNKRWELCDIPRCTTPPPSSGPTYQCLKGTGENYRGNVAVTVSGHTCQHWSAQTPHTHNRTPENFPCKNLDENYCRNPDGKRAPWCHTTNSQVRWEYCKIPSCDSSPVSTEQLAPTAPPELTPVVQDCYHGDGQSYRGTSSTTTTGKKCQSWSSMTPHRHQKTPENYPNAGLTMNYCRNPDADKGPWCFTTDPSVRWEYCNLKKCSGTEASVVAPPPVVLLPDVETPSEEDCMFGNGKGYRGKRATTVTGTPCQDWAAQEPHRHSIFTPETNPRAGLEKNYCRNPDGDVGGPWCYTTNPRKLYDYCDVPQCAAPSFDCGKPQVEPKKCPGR
UniProt P00760, 24-246 limits assumed: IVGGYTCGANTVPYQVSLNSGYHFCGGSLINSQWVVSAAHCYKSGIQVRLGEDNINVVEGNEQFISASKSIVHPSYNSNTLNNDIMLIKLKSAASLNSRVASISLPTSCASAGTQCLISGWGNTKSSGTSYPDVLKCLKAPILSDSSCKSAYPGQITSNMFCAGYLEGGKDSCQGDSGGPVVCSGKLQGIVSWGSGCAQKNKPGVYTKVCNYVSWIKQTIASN
UniProt P00743, 234-492 limits assumed: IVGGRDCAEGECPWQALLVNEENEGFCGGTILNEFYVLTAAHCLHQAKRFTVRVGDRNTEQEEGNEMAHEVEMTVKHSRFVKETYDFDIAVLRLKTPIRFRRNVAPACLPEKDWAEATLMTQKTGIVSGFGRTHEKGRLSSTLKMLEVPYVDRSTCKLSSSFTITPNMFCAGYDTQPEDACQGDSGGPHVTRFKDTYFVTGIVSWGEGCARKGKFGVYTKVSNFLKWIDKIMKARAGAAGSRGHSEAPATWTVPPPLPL
UniProt P00743, 41-180 partner limits assumed: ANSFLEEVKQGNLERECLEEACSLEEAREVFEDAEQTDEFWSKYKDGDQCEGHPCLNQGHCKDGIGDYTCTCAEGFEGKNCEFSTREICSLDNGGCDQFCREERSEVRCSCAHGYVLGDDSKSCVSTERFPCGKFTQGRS

Experiments:
[1] = tested on: experimental pancreatitis; experiment: Effect on experimental pancreatitis (sodium taurochorate + trypsin into the common bile duct), survival ratio; set-up: Effect on experimental pancreatitis (100 mg/kg p.o.) After 24 hours / Effect on experimental pancreatitis (100 mg/kg p.o.) After 48 hours: unit not given here; conditions: rat; for Effect on experimental pancreatitis Survival ratio(%) After 24 hours / Effect on experimental pancreatitis Survival ratio(%) After 48 hours: 80 μg/kg/min. x 80 min. continuous infusion
[2] = target: human urokinase (Homo sapiens, UniProt P00749); experiment: Anti-urokinase activity: inhibition of S-2444 degradation; assay type: biochemical; conditions: read-out: Urokinase S-2444 (I50); substrate S-2444, 37°C, pH 8.8; tested form: HCl
Experimental: 3) Assay of anti-urokinase activity Assay method of inhibition of S-2444 degradation
The test substance was dissolved in a 0.05 M Tris-HC1 (pH 8.8) buffer to make a total volume of 400 µl, and 50 µl of a 1 mM S-2444 solution was added to the mixture. After incubation at 37°C for 5 minutes in an incubator, an addition of 50 µl of 500 units/ml human urokinase solution, and incubation at 37°C for 5 minutes, the reaction was terminated by an addition of 50 µl of 50% acetic acid.

[3] = tested on: ICR male mice; conditions: intravenous, up-and-down method
[4] = target: human plasma kallikrein (Homo sapiens, UniProt P03952); experiment: Anti-plasma kallikrein activity: inhibition of S-2302 degradation; assay type: biochemical; conditions: read-out: Plasma kallikrein S-2302 (I50); substrate S-2302, 37°C, pH 7.8; tested form: HCl
[5] = target: T1, human plasmin (Homo sapiens, UniProt P00747); experiment: Anti-plasmin activity: inhibition of fibrinolysis (fibrin clot lysis time); assay type: biochemical; conditions: read-out: Plasmin Fibrin (I50), concentration giving a fibrin clot lysis time twice that of control, 37°C, pH7.4
[6] = target: Trypsin (Bos taurus, UniProt P00760); experiment: Anti-trypsin activity (S-2238); assay type: biochemical; conditions: read-out: Trypsin S-2238 (I50), substrate S-2238
[7] = target: T1, human plasmin; experiment: Anti-plasmin activity: inhibition of S-2251 degradation; assay type: biochemical; conditions: read-out: Plasmin S-2251 (I50), substrate S-2251, 37°C, pH7.4
[8] = target: bovine factor Xa (Bos taurus, UniProt P00743); experiment: Anti-FXa activity: inhibition of S-2222 degradation; assay type: biochemical; conditions: read-out: FXa S-2222 (I50); substrate S-2222, 37°C, pH 8.3; tested form: 2HCl
Experimental: 4) Assay of anti-FXa activity Assay method of inhibition of S-2222 degradation
To 0.4 ml of the test substance dissolved in a 0.05 M Tris-HC1 (pH 8.3) buffer is added 0.05 ml of 3 mM S-2222 solution, and after incubation at 37°C for about 4 minutes, an addition of 0.05 ml of 0.3 vial/ml bovine factor Xa, and a reaction at 37°C for 4 minutes, the - reaction was terminated by adding 0.05 ml of 50% acetic acid.

[9] = after 24 hours, tested form: 2HCl
[10] = after 48 hours, tested form: 2HCl

Compound	Effect on experimental pancreatitis Survival ratio(%) After 24 hours ([1]; after 24 hours, tested form: HCl) [%]	Effect on experimental pancreatitis Survival ratio(%) After 48 hours ([1]; after 48 hours, tested form: HCl) [%]	IC50 [2] [µM]	Acute toxicity (LD50) ([3]; tested form: HCl) [mg/kg]	IC50 [4] [µM]	IC50 ([5]; tested form: HCl) [µM]	IC50 ([6]; tested form: HCl) [µM]	IC50 ([7]; tested form: HCl) [µM]	Effect on experimental pancreatitis Survival ratio(%) After 24 hours [1, 9] [%]	Effect on experimental pancreatitis Survival ratio(%) After 48 hours [1, 10] [%]	Acute toxicity (LD50) ([3]; tested form: 2HCl) [mg/kg]	IC50 [8] [µM]	IC50 ([5]; tested form: 2HCl) [µM]	Effect on experimental pancreatitis (100 mg/kg p.o.) After 24 hours ([1]; survival ratio, 100 mg/kg p.o. 30 minutes before pancreatitis, after 24 hours, tested form: 2HCl)	Effect on experimental pancreatitis (100 mg/kg p.o.) After 48 hours ([1]; survival ratio, 100 mg/kg p.o. 30 minutes before pancreatitis, after 48 hours, tested form: 2HCl)	IC50 ([6]; tested form: 2HCl) [µM]	IC50 ([7]; tested form: 2HCl) [µM]
NCC1CCC(C(=O)N[C@@H](Cc2ccc(OCc3ccccc3)cc2)C(=O)Nc2cccc(CC(=O)O)c2)CC1 (stereo partly shown)	41.7	33.3	> 500	>100	3.6	31	14	36									
CC(=O)c1ccc(NC(=O)[C@H](Cc2ccc(OCc3ccncc3)cc2)NC(=O)C2CCC(CN)CC2)cc1 (stereo partly shown)									43.3	26.7	50	65	0.7				
CC(=O)c1ccc(NC(=O)[C@H](Cc2ccc(Oc3ccc([N+](=O)[O-])cn3)cc2)NC(=O)C2CCC(CN)CC2)cc1 (stereo partly shown)									66.7	58.3	60	27	0.4	76.9	53.8	0.2	1
